scFv variants of Ab-95 (light chain) against a SARS-CoV-2 spike peptide

Values reported by Engelhart et al. 2022, doi:10.1038/s41597-022-01779-4 (FLAb copy).

Target peptide (SARS-CoV-2 spike, HR2 region): PDVDLGDISGINAS

Ab-95 is the parent antibody, in scFv form: VH, then the linker GGGGSGGGGSGGGGS, then VL. The heavy chain is unchanged in all variants.
VH: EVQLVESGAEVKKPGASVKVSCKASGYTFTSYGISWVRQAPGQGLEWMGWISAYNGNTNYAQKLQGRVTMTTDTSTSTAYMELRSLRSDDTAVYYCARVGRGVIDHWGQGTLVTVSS
VL: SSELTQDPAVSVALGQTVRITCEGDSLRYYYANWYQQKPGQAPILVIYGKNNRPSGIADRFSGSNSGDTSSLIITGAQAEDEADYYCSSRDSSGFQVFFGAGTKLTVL

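The parent was found by panning a naive human phage display library on the peptide. AAYL52 was designed without a model: most single CDR substitutions and a random sample of double and triple ones. Affinity was read by AlphaSeq, a pooled yeast mating assay with surface-displayed partners. Mating (16 h, 30 °C) was followed by selection of diploids and sequencing of their barcodes. Scores were corrected for input abundance and mapped to Kd with protein pairs of known affinity run in the same pool. The assay was run in three technical replicates.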

Each variant's VL is given in full. This list gathers variants with a substitution at G49 (VL, numbered from residue 1). Kd is apparent (estimated from mating counts) and averaged on the log scale over replicates with a signal. Smaller is tighter. An entry "nd" has no value in the source: the pair was not observed among the diploids in any replicate. This suggests poor binding but is not conclusive.

With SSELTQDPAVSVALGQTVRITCEGDSLRCYYANWYQQKPGQAPILVIYSKNNRPSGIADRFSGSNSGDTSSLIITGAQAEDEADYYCSSRDSSGEQVFFGAGTKLTVL the result was 7.5 µM (2 of 3 replicates; controls 6 of 9).
With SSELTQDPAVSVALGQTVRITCEGDSLRYYYANWYQQKPGQAPILVIYAKNNRPSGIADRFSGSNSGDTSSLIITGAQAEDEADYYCSSRDSSIFQVLFGAGTKLTVL the result was 3.8 µM (1 of 3 replicates; controls 2 of 9).
With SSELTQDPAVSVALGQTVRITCEGDSLRLYYANWYQQKPGQAPILVIYDKNNRPSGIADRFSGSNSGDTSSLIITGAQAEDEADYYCSSRDSSGMQVFFGAGTKLTVL the result was 700 nM (2 of 3 replicates; controls 2 of 9).
With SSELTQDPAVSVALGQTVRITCEGDSLRYYYANWYQQKPGQAPILVIYRKWNRPSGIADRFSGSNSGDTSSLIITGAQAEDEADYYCSSRDSSGFQLFFGAGTKLTVL the result was nd (0 of 3 replicates; controls 0 of 9).
With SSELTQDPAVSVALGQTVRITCEGDKLRYYYANWYQQKPGQAPILVIYVKNNRPSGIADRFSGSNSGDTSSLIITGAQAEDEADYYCSSRDSSGFGVFFGAGTKLTVL the result was 34 µM (1 of 3 replicates; controls 0 of 9).
With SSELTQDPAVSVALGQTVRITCEGDSLRYYYANWYQQKPGQAPILVIYMANNRPSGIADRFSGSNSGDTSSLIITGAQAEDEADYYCSSRDSSGFWVFFGAGTKLTVL the result was 5.0 µM (2 of 3 replicates; controls 2 of 9).
With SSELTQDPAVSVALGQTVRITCEGDSLRYYYANWYQQKPGQAPILVIYNKNNRPSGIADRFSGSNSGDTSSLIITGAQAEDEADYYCSSRDSHGFSVFFGAGTKLTVL the result was 5.0 µM (1 of 3 replicates; controls 0 of 9).
With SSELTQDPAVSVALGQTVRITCEGDFLRYYYWNWYQQKPGQAPILVIYYKNNRPSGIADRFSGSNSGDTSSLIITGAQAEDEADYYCSSRDSSGFQVFFGAGTKLTVL the result was 86 µM (1 of 3 replicates; controls 1 of 9).
With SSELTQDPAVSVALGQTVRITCAGDSLRYYYANWYQQKPGQAPILVIYMKNNRPSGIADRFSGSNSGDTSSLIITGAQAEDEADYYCSSRDSSGFQSFFGAGTKLTVL the result was 17 µM (1 of 3 replicates; controls 2 of 9).
With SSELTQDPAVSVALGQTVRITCEWDSLRYYYANWYQQKPGQAPILVIYTRNNRPSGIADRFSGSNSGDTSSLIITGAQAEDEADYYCSSRDSSGFQVFFGAGTKLTVL the result was 15 µM (2 of 3 replicates; controls 5 of 9).
With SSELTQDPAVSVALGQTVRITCEGDSLRAYYANWYQQKPGQAPILVIYTKNNRPSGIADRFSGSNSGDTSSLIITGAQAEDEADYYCSSRDSSGFQVPFGAGTKLTVL the result was 3.3 µM (3 of 3 replicates; controls 1 of 9).
With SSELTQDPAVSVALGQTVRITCEGDSNRYYYANWYQQKPGQAPILVIYLKNNRPSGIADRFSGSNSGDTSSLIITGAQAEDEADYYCSCRDSSGFQVFFGAGTKLTVL the result was 790 nM (3 of 3 replicates; controls 1 of 9).
With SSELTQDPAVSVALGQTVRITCEGDSLRYYYANWYQQKPGQAPILVIYEKNNRPSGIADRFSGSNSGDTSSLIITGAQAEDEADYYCLSRDSSGFQGFFGAGTKLTVL the result was 1.8 µM (2 of 3 replicates; controls 2 of 9).
With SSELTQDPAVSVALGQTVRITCEKDSLRYSYANWYQQKPGQAPILVIYCKNNRPSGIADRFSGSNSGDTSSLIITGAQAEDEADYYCSSRDSSGFQVFFGAGTKLTVL the result was 24 µM (2 of 3 replicates; controls 4 of 9).
With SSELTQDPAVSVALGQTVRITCEGDSLRYYYANWYQQKPGQAPILVIYIKNNRPNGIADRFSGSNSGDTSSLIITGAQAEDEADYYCSSRDSAGFQVFFGAGTKLTVL the result was 16 µM (2 of 3 replicates; controls 4 of 9).
With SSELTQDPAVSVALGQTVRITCEGDSLRYYYANWYQQKPGQAPILVIYRCNNRPSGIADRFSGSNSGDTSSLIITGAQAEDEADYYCSSRISSGFQVFFGAGTKLTVL the result was 160 µM (2 of 3 replicates; controls 5 of 9).
With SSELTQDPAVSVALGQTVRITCEGISLRYYYANWYQQKPGQAPILVIYYKNNRPSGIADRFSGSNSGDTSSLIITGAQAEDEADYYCSSRDASGFQVFFGAGTKLTVL the result was 8.1 µM (2 of 3 replicates; controls 5 of 9).
With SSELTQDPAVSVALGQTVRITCEGDSLRYYYANWYQQKPGQAPILVIYANNIRPSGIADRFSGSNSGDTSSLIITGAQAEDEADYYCSSRDSSGFQVFFGAGTKLTVL the result was 650 nM (3 of 3 replicates; controls 1 of 9).
With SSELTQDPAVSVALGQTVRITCPGDTLRYYYANWYQQKPGQAPILVIYSKNNRPSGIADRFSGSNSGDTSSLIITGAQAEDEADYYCSSRDSSGFQVFFGAGTKLTVL the result was nd (0 of 3 replicates; controls 1 of 9).
With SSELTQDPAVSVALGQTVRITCEGDSLRYYYANWYQQKPGQAPILVIYPKNERPSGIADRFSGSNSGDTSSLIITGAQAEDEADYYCSSRDSSGFQVDFGAGTKLTVL the result was 12 µM (3 of 3 replicates; controls 2 of 9).
With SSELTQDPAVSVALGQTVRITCFGDSLNYYYANWYQQKPGQAPILVIYVKNNRPSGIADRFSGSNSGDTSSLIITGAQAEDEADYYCSSRDSSGFQVFFGAGTKLTVL the result was 69 µM (2 of 3 replicates; controls 3 of 9).
With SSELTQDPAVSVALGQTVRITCEGDSLRYYYANWYQQKPGQAPILVIYHDNNRPSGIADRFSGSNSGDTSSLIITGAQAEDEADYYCSSRDSSGFQVMFGAGTKLTVL the result was 2.3 µM (3 of 3 replicates; controls 2 of 9).
With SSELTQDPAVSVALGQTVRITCEGDSLRYYYANWYQQKPGQAPILVIYQKNNRPSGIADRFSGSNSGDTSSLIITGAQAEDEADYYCYSRDSDGFQVFFGAGTKLTVL the result was 20 µM (3 of 3 replicates; controls 3 of 9).
With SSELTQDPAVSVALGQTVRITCEGHSLRYYYANWYQQKPGQAPILVIYTKNNRPSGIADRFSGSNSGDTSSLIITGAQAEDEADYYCSSRDSHGFQVFFGAGTKLTVL the result was 1.4 µM (2 of 3 replicates; controls 3 of 9).
With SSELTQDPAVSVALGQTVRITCEGDSLRFYYAWWYQQKPGQAPILVIYYKNNRPSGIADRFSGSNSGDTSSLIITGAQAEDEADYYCSSRDSSGFQVFFGAGTKLTVL the result was 300 µM (1 of 3 replicates; controls 4 of 9).
With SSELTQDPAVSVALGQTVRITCEGDSLRQAYANWYQQKPGQAPILVIYDKNNRPSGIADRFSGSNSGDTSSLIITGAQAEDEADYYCSSRDSSGFQVFFGAGTKLTVL the result was 83 nM (3 of 3 replicates; controls 4 of 9).

The closing 2 entries, repeated:

VL,apparent Kd,seen in,signal with controls
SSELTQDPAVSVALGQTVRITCEGDSLRFYYAWWYQQKPGQAPILVIYYKNNRPSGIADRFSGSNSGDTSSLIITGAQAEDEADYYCSSRDSSGFQVFFGAGTKLTVL,300 µM,1/3,4/9
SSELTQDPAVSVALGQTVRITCEGDSLRQAYANWYQQKPGQAPILVIYDKNNRPSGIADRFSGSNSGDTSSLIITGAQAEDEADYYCSSRDSSGFQVFFGAGTKLTVL,83 nM,3/3,4/9

Parent in this assay: reference entry 200 nM, copy in this library 180 nM. Background: pairings of library AAYL52 with three empty control strains gave a value in 28% of cases (median 8.2 µM, 5th percentile 800 nM). Values in that range, when seen in few replicates, are hard to tell from nonspecific mating. For each scFv, signals with the empty controls are counted beside the result.